Literature values, collected in PMC11334105, “Contribution of Noncovalent Recognition and Reactivity to the Optimization of Covalent Inhibitors: A Case Study on KRas^G12C” (ACS Chemical Biology, 2024).

Settings: free imidazole and aziridine ref 43; cited from earlier work

## aziridine
  pKa of the conjugated acid: 8
